Laboratory results reported in US20210060174A1 (CYTOSEEK, published 2021).

Biological target: T1, CshA-SpyTag
T1 construct: Fusion of CshA (Streptococcus gordonii) portion and SpyTag
T1 chain: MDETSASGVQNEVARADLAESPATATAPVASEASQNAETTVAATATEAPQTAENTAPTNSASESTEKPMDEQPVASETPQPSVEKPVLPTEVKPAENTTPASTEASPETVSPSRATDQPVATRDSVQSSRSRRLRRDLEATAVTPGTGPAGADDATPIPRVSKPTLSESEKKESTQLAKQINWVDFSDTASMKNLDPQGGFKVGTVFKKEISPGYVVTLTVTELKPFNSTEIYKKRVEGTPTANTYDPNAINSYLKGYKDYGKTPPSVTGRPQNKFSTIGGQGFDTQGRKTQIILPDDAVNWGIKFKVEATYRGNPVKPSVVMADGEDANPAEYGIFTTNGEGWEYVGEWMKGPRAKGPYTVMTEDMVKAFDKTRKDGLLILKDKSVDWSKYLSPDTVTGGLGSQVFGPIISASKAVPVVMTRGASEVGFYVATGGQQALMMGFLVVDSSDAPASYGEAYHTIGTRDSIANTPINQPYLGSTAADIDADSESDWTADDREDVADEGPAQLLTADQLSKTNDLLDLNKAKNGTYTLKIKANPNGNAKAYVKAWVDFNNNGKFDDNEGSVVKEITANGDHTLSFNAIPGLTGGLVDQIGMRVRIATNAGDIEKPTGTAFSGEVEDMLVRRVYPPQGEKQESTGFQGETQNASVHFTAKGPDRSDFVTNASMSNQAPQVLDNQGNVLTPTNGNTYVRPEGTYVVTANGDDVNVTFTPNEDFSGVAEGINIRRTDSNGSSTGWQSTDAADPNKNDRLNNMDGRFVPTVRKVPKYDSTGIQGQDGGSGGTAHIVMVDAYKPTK
Assay: SDS-PAGE of solution coupling reaction (covalent isopeptide bond)

B1: scGFP-SpyCatcher (other)
chain: ASKGERLFRGKVPILVELKGDVNGHKFSVRGKGKGDATRGKLTLKFICTTGKLPVPWPTLVTTLTYGVQCFSRYPKHMKRHDFFKSAMPKGYVQERTISFKKDGKYKTRAEVKFEGRTLVNRIKLKGRDFKEKGNILGHKLRYNFNSHKVYITADKRKNGIKAKFKIRHNVKDGSVQLADHYQQNTPIGRGPVLLPRNHYLSTRSKLSKDPKEKRDHMVLLEFVTAAGIKHGRDERYKGGSGGTGGSGGTGGSGGTGGAMVDTLSGLSSEQGQSGDMTIEEDSATHIKFSKRDEDGKELAGATMELRDSSGKTISTWISDGQVKDFYLYPGKYTFVETAAPDGYEVATAITFTVNEQGQVTVNGKATKGDAHI
- binding result: binds

B2: [scGFP-SpyCatcher][S] (other)
chain: ASKGERLFRGKVPILVELKGDVNGHKFSVRGKGKGDATRGKLTLKFICTTGKLPVPWPTLVTTLTYGVQCFSRYPKHMKRHDFFKSAMPKGYVQERTISFKKDGKYKTRAEVKFEGRTLVNRIKLKGRDFKEKGNILGHKLRYNFNSHKVYITADKRKNGIKAKFKIRHNVKDGSVQLADHYQQNTPIGRGPVLLPRNHYLSTRSKLSKDPKEKRDHMVLLEFVTAAGIKHGRDERYKGGSGGTGGSGGTGGSGGTGGAMVDTLSGLSSEQGQSGDMTIEEDSATHIKFSKRDEDGKELAGATMELRDSSGKTISTWISDGQVKDFYLYPGKYTFVETAAPDGYEVATAITFTVNEQGQVTVNGKATKGDAHI
modifications: Non-covalent corona of glycolic acid ethoxylate 4-nonylphenyl ether surfactant, electrostatically complexed to cationic residues (mainly on scGFP). The letters do not carry it.
notes: Protein-polymer surfactant conjugate of scGFP-SpyCatcher; same polypeptide as m1 with a non-covalent surfactant corona; also called scGFP-SpyCatcher surfactant conjugate
- binding result: binds
